Measurements from ChEMBL document CHEMBL4396895, “Identification and Optimization of Novel Cathepsin C Inhibitors Derived from EGFR Inhibitors” (J Med Chem, 2019).

By UniProt entry, the sequences of proteins in these tests, tags left out. Residues count along the entry.
UniProt P53634, 395-463 limits assumed: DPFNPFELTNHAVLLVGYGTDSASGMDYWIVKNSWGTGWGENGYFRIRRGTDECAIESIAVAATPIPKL
UniProt P53634, 25-134 limits assumed: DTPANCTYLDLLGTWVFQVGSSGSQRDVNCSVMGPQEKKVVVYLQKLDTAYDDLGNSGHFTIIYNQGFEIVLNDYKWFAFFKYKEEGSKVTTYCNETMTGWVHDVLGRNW
UniProt P53634, 231-394 limits assumed: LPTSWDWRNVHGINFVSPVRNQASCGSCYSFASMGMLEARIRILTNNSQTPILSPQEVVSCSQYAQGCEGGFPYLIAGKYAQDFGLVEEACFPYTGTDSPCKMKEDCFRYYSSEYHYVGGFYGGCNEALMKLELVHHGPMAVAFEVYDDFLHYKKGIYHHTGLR

Target: Dipeptidyl peptidase 1 (Homo sapiens, UniProt P53634)
Test: Inhibition of cathepsin C (unknown origin)
Procedure, shortened: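 Human recombinant CatC, activated then diluted to 4.4 nM in 25 mM MES, 50 mM NaCl, 5 mM DTT, 0.01% Triton X-100, pH 6.0. Enzyme preincubated with compound 3 h at RT. Gly-Phe-AFC added (100 μM final) and product fluorescence read after 60 min. IC50 from sigmoidal nonlinear regression, mean of at least two experiments.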

IC50: 2.9 nM
Structure (SMILES): N#Cc1ccc(-c2ccc(C[C@@H](C#N)NC(=O)C3(N)CCOCC3)cc2)cc1
